The values that follow come from patent EP4821483A1, “SOLID DISPERSION INCLUDING HETEROCYCLE DERIVATIVE, METHOD FOR PREPARING SAME, AND PHARMACEUTICAL COMPOSITION INCLUDING SAME” (dated 2026).

Structures are written as SMILES.

The data set in a line: Solubility in FaSSIF pH 6.5 eluate (Pion Micro-dissolution system). To be noted: After 12 hours, 37±2 °C, 250 rpm, 20 mL media. The source says: For the obtained solid dispersion, the solubility was confirmed in a FaSSIF pH 6.5 eluate using a Pion Micro Diss instrument.

`CS(=O)(=O)[C@H]1CCOc2cc3sc(C(=O)Nc4cc(Cl)nc(Oc5ccc(Cl)cc5)c4)cc3cc21`: the “concentration of compound 1a dissolved in the FaSSIF pH 6.5 eluate” value turned out to be 39.16 µg/mL.
